Test results as given in patent publication US20260242416A1, “ANTIMICROBIAL PEPTIDES” (priority 2023, published 2026).

How the values were obtained:
[1] = system: Salmonella enterica serovar Enteritidis (human clinical isolate); format: cell-based
Procedure: (§1) Bacteria were grown overnight at 37° C. in Mueller-Hinton Broth (MHB; Sigma-Aldrich, St. Louis. MO, USA) in a shaking incubator and aliquoted into cryovials with a 50% glycerol solution in a 1:1 ratio. No additives were added to the MHB during the growth of bacterial isolates. Glycerol stocks were stored at −80° C.
(§2) The antimicrobial activity of the putative AMPs was determined by a broth microdilution assay as described by the Clinical and Laboratory Standards Institute, with the published adaptations for testing of cationic peptides. Escherichia coli 25922 and Staphylococcus aureus 29213 isolates were purchased from the American Type Culture Collection (ATCC; Manassas, VA, USA). […] Isolated colonies were suspended in MHB and the optical density was measured with a spectrophotometer to create an initial inoculum concentration of approximately 1×10^8 cfu/mL. […]
(§3) Lyophilized 80 μg peptide aliquots synthesized by GenScript (Piscataway, NJ, USA) were resuspended to 1.28 mg/mL with UltraPure water (Thermo Fisher Scientific, Waltham, MA, USA) and serially diluted in polypropylene 96-well microtiter plates (Greiner Bio-One #650261, Kremsmunster, Austria) from 128 down to 0.5 μg/mL. […] The minimum inhibitory concentration (MIC) was determined as the lowest peptide concentration where there was no visible bacterial growth.

S. aureus ATCC 29213 = format: cell-based, Staphylococcus aureus
Procedure: as §1, §2, §3

E. coli ATCC 25922 = format: cell-based, Escherichia coli
Procedure: as §1, §2, §3

MIC (ug/mL) S. Enteritidis [1]: >128/>128/>128 ug/mL
MIC (ug/mL) S. aureus (S. aureus ATCC 29213): >128/>128/>128 ug/mL
MIC (ug/mL) E. coli (E. coli ATCC 25922): >128/>128/>128 ug/mL
Compound: CC[C@H](C)[C@H](NC(=O)[C@H](CCCNC(=N)N)NC(=O)CNC(=O)[C@@H](NC(=O)[C@@H]1CCCN1C(=O)[C@H](Cc1ccccc1)NC(=O)[C@H](CCC(N)=O)NC(=O)[C@H](CC(C)C)NC(=O)CNC(=O)[C@H](C)N)C(C)C)C(=O)N[C@@H](Cc1c[nH]cn1)C(=O)N[C@@H](CCCNC(=N)N)C(=O)N[C@@H](Cc1c[nH]cn1)C(=O)N[C@@H](CC(C)C)C(=O)N[C@@H](CCCCN)C(=O)N[C@H](C(=O)N[C@@H](CCCNC(=N)N)C(=O)O)[C@@H](C)O [PeNi6, AGLQFPVGRIHRHLKTR]
